Paper PMC11149885 (PLOS ONE, 2024)
Where two headings read alike, the source gives them in different places.

What was measured:
[1] = Rabbit Choroid, 600 ug, cited from earlier work
synthetic melanin = assay: in vitro
[2] = NHP Choroid/RPE, 600 ug, cited from earlier work

## CNC(=O)c1ccccc1Sc1ccc2c(/C=C/c3ccccn3)n[nH]c2c1 [Axitinib]
[1]; 14 days post-treatment
  Concentration, choroid: 200 µg/g
[1]; 28 days post-treatment
  Concentration, choroid: 650 µg/g
[1]; 60 days post-treatment
  Concentration, choroid: 1300 µg/g
[1]; 84 days post-treatment
  Concentration, choroid: 5000 µg/g
Synthetic melanin
  fraction unbound at 1 h: 0.959
[2]; 90 days post-treatment
  Concentration, choroid/RPE: 960 µg/g
[2]; 180 days post-treatment
  Concentration, choroid/RPE: 4000 µg/g
[2]; 270 days post-treatment
  Concentration, choroid/RPE: 3040 µg/g
